Experimental findings from US5633144A, “Assay pad and method for determination of the presence of total coliforms” (priority 1994, dated 1997) are described below.

In the experiment the test system is beta-galactosidase. As to the kind of experiment: Effect of heavy metals and other toxicants on beta-galactosidase activity. The settings on record: eliminated by adding a reducing agent such as sodium thiosulfate. An excerpt: Therefore, in the example described above, fluorescence reduction resulting from exposure of beta-galactosidase to the test sample can be indicative of heavy metal pollution in the sample. Advantageously, it has been determined that beta-galactosidase activity is not inhibited by pollutants or toxicants other than heavy metals. […] Although strong oxidants such as chlorine may slow beta-galactosidase activity, the effect of such compounds can be rapidly and conveniently eliminated by adding a reducing agent such as sodium thiosulfate. Therefore, the novel assay and kit described here provide very selective means for detecting the presence of heavy metals even when the metals are mixed with other toxicants.

In the case of chlorine, the “effect on beta-galactosidase activity (in words)” value is listed as “may slow beta-galactosidase activity”.
